Consider six compounds from PMC6882465, “Towards discovery of new leishmanicidal scaffolds able to inhibit Leishmania GSK-3” (Journal of Enzyme Inhibition and Medicinal Chemistry, 2019).

By UniProt entry, the sequences of proteins in these tests, tags left out.
UniProt P49841, whole entry: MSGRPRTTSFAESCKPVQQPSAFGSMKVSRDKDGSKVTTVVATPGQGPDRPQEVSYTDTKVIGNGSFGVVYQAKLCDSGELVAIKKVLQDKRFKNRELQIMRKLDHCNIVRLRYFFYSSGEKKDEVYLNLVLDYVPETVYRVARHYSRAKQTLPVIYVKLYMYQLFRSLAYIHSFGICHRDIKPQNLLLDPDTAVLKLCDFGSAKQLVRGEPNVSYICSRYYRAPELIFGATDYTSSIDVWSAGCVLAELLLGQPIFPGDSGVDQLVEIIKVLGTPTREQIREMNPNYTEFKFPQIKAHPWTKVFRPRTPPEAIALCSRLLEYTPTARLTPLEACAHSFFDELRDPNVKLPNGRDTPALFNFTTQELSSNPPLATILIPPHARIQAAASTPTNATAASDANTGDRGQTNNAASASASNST

Assay [1] deals with peritoneal murine macrophages (PMM). The assay can be described thus: Cytotoxicity on peritoneal murine macrophages (MTT). Type of assay: cell-based, Balb/c mice. As to conditions: read-out: PMM EC50; Table 1; 48 h.
The next assay deals with hGSK-3β (Homo sapiens, UniProt P49841). The conditions noted are these: read-out: hGSK-3β IC50, cited from earlier work.

Where two headings read alike, the source gives them in different places.

Broadly, the EC50 is the concentration at which the effect is half-maximal. On to `CCCCCCCCCCCC(=O)NNC(=O)c1c(O)c2ccccc2n(CC)c1=O`, for which the EC50 in assay [1] is 9900 nM. Still for that read-out and setting: for `Cn1sc(=O)n(Cc2ccccc2)c1=O` the value was 32900 nM. A word on the IC50: it is the concentration that gives 50% inhibition. Take `O=C(CBr)c1scc(Br)c1Br`: the IC50 at hGSK-3β (Table S1, ref 5 (supplement)) was 1000 nM.

As for `Cn1cc(C2=C(C(=O)CBr)C(=O)NC2=O)c2ccccc21`, the EC50 in assay [1] is more than 25000 nM. The IC50 at hGSK-3β (Table 1) is 5 nM. As to `O=C(CCl)c1scc(Br)c1Br`, in assay [1], the EC50 amounted to 6300 nM. Moreover, the IC50 at hGSK-3β (Table 1) was 500 nM. Regarding `OCCN=c1nc(-c2ccccc2)n(-c2ccccc2)s1`, the IC50 on hGSK-3β (Table 1, tested form: HBr) is 2000 nM.
